Assay results as given in ChEMBL document CHEMBL1909493, “Synthesis and biological evaluation of novel analogues of the pan class I phosphatidylinositol 3-kinase (PI3K) inhibitor 2-(difluoromethyl)-1-[4,6-di(4-morpholinyl)-1,3,5-triazin-2-yl]-1H-benzimidazole (ZSTK474)” (J Med Chem, 2011).

The chains behind the UniProt entries cited, without tags or fusion partners.
UniProt P42337, whole entry: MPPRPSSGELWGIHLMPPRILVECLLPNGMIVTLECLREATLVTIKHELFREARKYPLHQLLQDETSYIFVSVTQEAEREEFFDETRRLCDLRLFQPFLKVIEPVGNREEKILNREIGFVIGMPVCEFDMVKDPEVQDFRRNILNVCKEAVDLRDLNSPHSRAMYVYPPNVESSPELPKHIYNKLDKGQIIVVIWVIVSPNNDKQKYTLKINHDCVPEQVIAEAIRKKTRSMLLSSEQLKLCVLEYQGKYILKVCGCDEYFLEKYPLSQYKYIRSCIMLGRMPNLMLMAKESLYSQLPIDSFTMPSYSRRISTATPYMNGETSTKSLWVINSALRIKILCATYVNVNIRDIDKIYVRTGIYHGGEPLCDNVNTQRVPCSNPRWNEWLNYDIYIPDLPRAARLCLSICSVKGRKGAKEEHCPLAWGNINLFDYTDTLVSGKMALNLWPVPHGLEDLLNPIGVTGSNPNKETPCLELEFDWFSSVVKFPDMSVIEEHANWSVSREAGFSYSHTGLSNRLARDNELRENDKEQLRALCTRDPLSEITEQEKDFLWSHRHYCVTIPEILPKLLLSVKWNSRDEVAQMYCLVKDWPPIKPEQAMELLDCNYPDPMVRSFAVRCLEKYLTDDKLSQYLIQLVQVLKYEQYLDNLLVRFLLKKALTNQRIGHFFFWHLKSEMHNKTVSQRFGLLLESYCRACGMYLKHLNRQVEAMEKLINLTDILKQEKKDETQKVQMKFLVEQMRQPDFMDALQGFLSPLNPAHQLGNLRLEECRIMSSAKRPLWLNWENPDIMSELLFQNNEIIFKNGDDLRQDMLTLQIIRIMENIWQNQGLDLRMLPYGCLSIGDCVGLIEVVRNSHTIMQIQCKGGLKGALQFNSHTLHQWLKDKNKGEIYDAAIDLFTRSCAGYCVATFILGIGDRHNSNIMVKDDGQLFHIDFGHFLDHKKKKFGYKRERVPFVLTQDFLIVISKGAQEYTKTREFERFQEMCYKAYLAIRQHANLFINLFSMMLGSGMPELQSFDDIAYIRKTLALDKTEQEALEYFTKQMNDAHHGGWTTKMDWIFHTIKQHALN

Columns and labels:
[1] = molecular target: Phosphatidylinositol 4,5-bisphosphate 3-kinase catalytic subunit alpha isoform (Mus musculus, UniProt P42337); experiment: Inhibition of mouse recombinant PI3K p110alpha expressed in Sf21 insect cells using phosphatidylinositol as substrate after 1 hr by phosphoimaging
cells [2] = conditions: Homo sapiens, NZOV9
cells [3] = conditions: Homo sapiens, NZB5
[4] = Inhibition of bovine recombinant PI3K p110delta expressed in Sf21 insect cells using phosphatidylinositol as substrate after 1 hr by phosphoimaging; parameters: species or system Bos taurus
cells [5] = conditions: Homo sapiens, HCT-116
[6] = molecular target: T1, Phosphatidylinositol 4,5-bisphosphate 3-kinase catalytic subunit delta isoform (Homo sapiens, UniProt O00329); experiment: Inhibition of human His-tagged PI3K p110delta after 2 hrs by HTRF assay
T1 sequence (O00329 whole entry): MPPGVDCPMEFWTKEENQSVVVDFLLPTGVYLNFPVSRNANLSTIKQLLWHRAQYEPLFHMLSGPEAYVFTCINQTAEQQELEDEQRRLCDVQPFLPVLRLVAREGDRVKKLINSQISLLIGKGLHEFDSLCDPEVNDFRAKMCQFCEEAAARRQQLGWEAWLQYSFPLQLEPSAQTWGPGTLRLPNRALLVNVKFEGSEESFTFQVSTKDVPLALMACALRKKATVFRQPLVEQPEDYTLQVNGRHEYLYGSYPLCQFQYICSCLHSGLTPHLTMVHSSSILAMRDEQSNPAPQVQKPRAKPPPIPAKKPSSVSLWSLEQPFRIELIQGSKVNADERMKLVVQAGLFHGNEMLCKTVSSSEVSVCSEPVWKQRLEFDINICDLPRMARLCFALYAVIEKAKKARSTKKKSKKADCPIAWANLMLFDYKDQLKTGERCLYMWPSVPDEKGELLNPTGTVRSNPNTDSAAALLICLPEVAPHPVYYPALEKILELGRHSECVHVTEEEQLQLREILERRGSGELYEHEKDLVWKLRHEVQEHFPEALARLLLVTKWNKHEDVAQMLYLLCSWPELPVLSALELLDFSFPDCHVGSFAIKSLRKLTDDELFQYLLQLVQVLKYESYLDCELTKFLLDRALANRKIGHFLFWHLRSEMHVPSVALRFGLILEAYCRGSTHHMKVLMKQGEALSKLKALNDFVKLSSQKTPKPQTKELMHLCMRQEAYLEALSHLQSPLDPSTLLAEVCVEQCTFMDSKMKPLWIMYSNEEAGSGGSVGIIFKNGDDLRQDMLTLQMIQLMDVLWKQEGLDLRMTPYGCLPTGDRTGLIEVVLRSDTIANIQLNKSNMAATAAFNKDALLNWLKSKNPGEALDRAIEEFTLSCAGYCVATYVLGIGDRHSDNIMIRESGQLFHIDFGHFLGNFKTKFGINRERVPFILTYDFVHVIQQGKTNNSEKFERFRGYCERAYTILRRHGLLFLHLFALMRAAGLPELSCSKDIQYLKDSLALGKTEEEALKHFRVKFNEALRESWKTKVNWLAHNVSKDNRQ

| IC50 (cells [2]) | IC50 (cells [3]) | Structure (SMILES) | other results |
| --- | --- | --- | --- |
| – | – | CCCCOc1cccc2c1nc(C(F)F)n2-c1nc(N2CCOCC2)nc(N2CCOCC2)n1 | IC50 [1]: 28 nM |
| 110 nM | 430 nM | COc1cccc2c1nc(C(F)F)n2-c1cc(N2CCOCC2)nc(N2CCOCC2)n1 | – |
| 110 nM | – | NC(=O)c1cccc2c1nc(C(F)F)n2-c1nc(N2CCOCC2)nc(N2CCOCC2)n1 | – |
| – | 420 nM | FC(F)c1nc2ccccc2n1-c1cc(N2CCOCC2)nc(N2CCOCC2)n1 | – |
| 110 nM | – | Oc1cccc2c1nc(C(F)F)n2-c1nc(N2CCOCC2)cc(N2CCOCC2)n1 | – |
| – | – | COc1cc(N)cc2c1nc(C(F)F)n2-c1nc(N2CCOCC2)nc(N2CCOCC2)n1 | IC50 [4]: 0.38 nM; IC50 (cells [5]): 17 nM; IC50 [6]: 1.7 nM |
| – | 9 nM | COc1c(O)ccc2c1nc(C(F)F)n2-c1nc(N2CCOCC2)nc(N2CCOCC2)n1 | IC50 [1]: 32 nM |
